This series in a line: partition coefficient (Ko/w) n-octanol / phosphate buffer. In kind it is physicochemical. The note with it: octanol / phosphate buffer pH 7.4, 25 °C, 24 h; complexes with 10 times higher host stock.

Each structure is given as a SMILES string.

`CCn1cc(C(=O)O)c(=O)c2cc(F)c(N3CCNCC3)cc21` [NOR, norfloxacin]: the “log P (experimental partition coefficient Ko/w)” value is −2.07.

(Values after US20250049946A1, “SULFONATO RESORCINARENE-COMPLEXED FLUOROQUINOLONES AND METHODS OF USE” (University of Cincinnati, priority 2023, published 2025).)
